Most compounds without a hit are left out; they make up all but 0.43% or so of the library.
HCMV UL50-53 inh – disrupts HCMV UL50-UL53 complex binding | HTRF UL50-UL53 interaction, normalized percent inhibition | inhibition, % (test concentration not listed) | 190,000 compounds, 0.15% hits | AID 1918969; in the data active = inhibition above about 27%, passing the limit was not always enough
GIV-Gai inh – inhibitors of GIV GBA-motif binding to rat Galpha-i3. 210,000 tested, 0.42% active. percent of control (FP), % (concentration not given with the values). AID 1224905. Galpha-i3/FITC-GIV peptide fluorescence polarization, 90 min; active compounds read low; scaled: aluminum fluoride 0%, vehicle 100%;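 active = replicate mean at 85% of control or lower, very high polarization wells dropped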;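 note: wells of about 15 µL received 100 nL stock; the first replicate is given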
Numbers without * were called inactive.

How did Nc1ccc2c3c(cccc13)C(=O)N(c1ccccc1)C2=O do in these assays?
HCMV UL50-53 inh: -56; GIV-Gai inh: -30*

What do the screens show for `O=C1c2cccc3c(N4CCNCC4)ccc(c23)C(=O)N1c1ccc(Cl)cc1`?
HCMV UL50-53 inh: -73; GIV-Gai inh: -91*

Results for Cc1n[nH]c(C)c1N1C(=O)c2cccc3c(N)ccc(c23)C1=O ?
GIV-Gai inh: -42*

How did Cc1n[nH]c(C)c1N1C(=O)c2cccc3c(Br)ccc(c23)C1=O do in these assays?
HCMV UL50-53 inh: -135; GIV-Gai inh: 99

How did Cc1cccc(N2C(=O)c3cccc4c(N5CCNCC5)ccc(c34)C2=O)c1 do in these assays?
HCMV UL50-53 inh: -98; GIV-Gai inh: 88

Results for Cc1ccc(CSc2nnc(-c3csc(C)n3)n2C)cc1 ?
HCMV UL50-53 inh: -2; GIV-Gai inh: 108

What do the screens show for `COc1cc(OC)cc(C(=O)N2CCN(c3nc4ccccc4n(C)c3=O)CC2)c1`?
GIV-Gai inh: 101

What do the screens show for `COc1ccc2ccccc2c1/C=C1\SC(=Nc2ccccc2)N(N(C)C)C1=O`?
GIV-Gai inh: 108

How did CN(C)N1C(=O)/C(=C/c2cccs2)SC1=Nc1ccccc1 do in these assays?
HCMV UL50-53 inh: 3; GIV-Gai inh: 85*

How did CCN(CC)c1ccc(/C=C2\SC(=S)N(c3c(C)n(C)n(-c4ccccc4)c3=O)C2=O)cc1 do in these assays?
GIV-Gai inh: 26*

How did CCN(CC)c1ccc(N2C(=O)/C(=C/c3ccccc3)SC2=S)cc1 do in these assays?
HCMV UL50-53 inh: -8

Results for CCOC(=O)C(C)n1nc(CC)n2c(cc3occc32)c1=O (stereo not drawn) ?
HCMV UL50-53 inh: -12; GIV-Gai inh: 107

How did c1ccc(CN2CCN(Cc3cnc(-c4ccccc4)[nH]3)CC2)cc1 do in these assays?
HCMV UL50-53 inh: -9; GIV-Gai inh: 103

What do the screens show for `CC(=O)Oc1ccc2cc(-c3nc(-c4ccc(Cl)c(Cl)c4)cs3)c(=O)oc2c1`?
GIV-Gai inh: 116

What do the screens show for `O=c1oc2cc(O)ccc2cc1-c1nc(-c2ccc(Cl)c(Cl)c2)cs1`?
GIV-Gai inh: -69*

What do the screens show for `O=c1oc2cc(O)ccc2cc1-c1nc(-c2cccs2)cs1`?
GIV-Gai inh: -32*

How did CC(=O)Oc1ccc2cc(-c3nc(-c4cccs4)cs3)c(=O)oc2c1 do in these assays?
GIV-Gai inh: 150

What do the screens show for `CS(=O)(=O)c1sc(C(=O)Sc2ccccc2)c2c1C=CCC2`?
HCMV UL50-53 inh: -8; GIV-Gai inh: 104

What do the screens show for `CC1=C(c2ccc(C)cc2)S(=O)(=O)NC1=NCCCN1CCC(Cc2ccccc2)CC1`?
HCMV UL50-53 inh: -1; GIV-Gai inh: 107

Results for O=C(O)CN1C(=O)/C(=C\c2ccc(-c3ccc(Cl)c([N+](=O)[O-])c3)o2)SC1=S ?
HCMV UL50-53 inh: -44; GIV-Gai inh: 111

By substructure: the entries above with a furan ring, fused or not.
Results for CCOC(=O)C(C)n1nc(CC)n2c(cc3occc32)c1=O (stereo not drawn) ?
HCMV UL50-53 inh: -12; GIV-Gai inh: 107

Results for O=C(O)CN1C(=O)/C(=C\c2ccc(-c3ccc(Cl)c([N+](=O)[O-])c3)o2)SC1=S ?
HCMV UL50-53 inh: -44; GIV-Gai inh: 111

New compounds follow.
How did CCN1C(=O)/C(=C\c2ccc(-c3ccc(Cl)c(C(=O)O)c3)o2)SC1=S do in these assays?
HCMV UL50-53 inh: -391; GIV-Gai inh: -15*

How did NC(=O)C1CCN(C(=O)CCCn2c(=O)c3cccn3c3ccc(Br)cc32)CC1 do in these assays?
HCMV UL50-53 inh: -12; GIV-Gai inh: 102

What do the screens show for `O=C(NCC1CCCO1)c1nnc(-c2ccc(S(=O)(=O)N3CCCC3)cc2)o1` (stereo not drawn)?
GIV-Gai inh: 105

How did C=CCc1ccccc1OCc1cc(=O)n2nc(CC)sc2n1 do in these assays?
HCMV UL50-53 inh: -14; GIV-Gai inh: 106

How did CN1/C(=C\C=C(C#N)C#N)C(C)(C)c2ccccc21 do in these assays?
HCMV UL50-53 inh: 14

Results for CC[n+]1c(/C=C/C=C2/N(C)c3ccccc3C2(C)C)sc2ccccc21 ?
HCMV UL50-53 inh: -10; GIV-Gai inh: -20*

What do the screens show for `CCc1nc2c(sc(=S)n2-c2ccccc2)c(=O)[nH]1`?
HCMV UL50-53 inh: -31; GIV-Gai inh: 104

Results for CN(C)c1ccc(C=C2C(=O)OC(C)(C(C)(C)C)OC2=O)cc1 (stereo not drawn) ?
HCMV UL50-53 inh: 1; GIV-Gai inh: 17*

How did CCN(CC)c1ccc(C=C2C(=O)OC3(CCCC3)OC2=O)cc1 do in these assays?
HCMV UL50-53 inh: 4; GIV-Gai inh: -26*

What do the screens show for `CCN(CC)c1ccc(C=C2C(=O)OC(c3ccccc3)OC2=O)cc1` (stereo not drawn)?
HCMV UL50-53 inh: 9

How did CN(C)c1ccc(C=C2C(=O)OC(C)(C)OC2=O)cc1 do in these assays?
HCMV UL50-53 inh: -25; GIV-Gai inh: 115

Results for COc1cc(Nc2ncc3c(n2)CCN(S(=O)(=O)c2ccc(Cl)cc2)C3)cc(OC)c1 ?
HCMV UL50-53 inh: -7; GIV-Gai inh: 116

How did O=C1CC(=O)CC(c2cccs2)C1 do in these assays?
HCMV UL50-53 inh: -20; GIV-Gai inh: 102

What do the screens show for `COC(=O)c1ccc(COC(=O)c2cccc(S(=O)(=O)N3CCc4ccccc43)c2)o1`?
HCMV UL50-53 inh: 20

Results for O=C(O)CCCN1C(=O)/C(=C/c2ccc(-c3ccccc3F)o2)SC1=S ?
HCMV UL50-53 inh: -35; GIV-Gai inh: 117

How did CN(C1=CC(=O)c2ccccc2C1=O)c1ccccc1 do in these assays?
HCMV UL50-53 inh: 51

Results for COC1=CC(=O)c2ccccc2C1=O ?
HCMV UL50-53 inh: 101*; GIV-Gai inh: 97

What do the screens show for `COc1ccc(OCC(=O)c2ccc(OCC3OC(OC(C)=O)C(OC(C)=O)C(OC(C)=O)C3OC(C)=O)cc2O)cc1` (stereo not drawn)?
GIV-Gai inh: 111

How did Cn1c(N2CCC(C(=O)NCCCN3CCOCC3)CC2)cc(=O)n(C)c1=O do in these assays?
GIV-Gai inh: 100

What do the screens show for `CCc1cc(C(=O)O)c(NC(=O)c2ccccc2)s1`?
HCMV UL50-53 inh: -6; GIV-Gai inh: 101

Reprinted at random: 3 compounds from above
What do the screens show for `O=c1oc2cc(O)ccc2cc1-c1nc(-c2cccs2)cs1`?
GIV-Gai inh: -32*

How did CN(C)c1ccc(C=C2C(=O)OC(C)(C)OC2=O)cc1 do in these assays?
HCMV UL50-53 inh: -25; GIV-Gai inh: 115

Results for O=C(O)CN1C(=O)/C(=C\c2ccc(-c3ccc(Cl)c([N+](=O)[O-])c3)o2)SC1=S ?
HCMV UL50-53 inh: -44; GIV-Gai inh: 111

Other structures follow.
How did Cc1cc(C)c(C#N)c(N2CCCC2)n1 do in these assays?
HCMV UL50-53 inh: 0; GIV-Gai inh: 109

How did N#Cc1c(N2CCCC2)nc(N)c2c(N)nc(N3CCCC3)cc12 do in these assays?
HCMV UL50-53 inh: 97*

Results for CC(C)C(=O)Nc1ccc(Cl)cc1C(=O)O ?
HCMV UL50-53 inh: -14; GIV-Gai inh: 99

What do the screens show for `CC(C)C(=O)Nc1ccc(N(C)C)cc1C(=O)O`?
HCMV UL50-53 inh: 51*; GIV-Gai inh: 99

How did CCCNC(=O)c1ccc(NC(=O)N2CCCCc3ccccc32)cc1 do in these assays?
HCMV UL50-53 inh: -12; GIV-Gai inh: 98

How did Cc1ccc(C(=O)NC2(O)C(=O)c3ccccc3C2=O)cn1 do in these assays?
HCMV UL50-53 inh: 54*; GIV-Gai inh: 94

Results for Cc1ccc(C(=O)N/N=C/c2c[nH]c3ccccc23)cn1 ?
HCMV UL50-53 inh: -56; GIV-Gai inh: 104

Results for CCc1ccc(N2C(=O)NC(=O)/C(=C\c3ccc(OC(C)C(=O)O)cc3)C2=O)cc1 (stereo not drawn) ?
HCMV UL50-53 inh: 78*; GIV-Gai inh: 100

What do the screens show for `Cc1cc(C)cc(N2C(=O)NC(=O)/C(=C\c3ccc(OC(C)C(=O)O)cc3)C2=O)c1` (stereo not drawn)?
HCMV UL50-53 inh: 88*; GIV-Gai inh: 113

Results for CCOc1ccc(N2C(=O)NC(=O)/C(=C\c3ccc(Br)cc3)C2=O)cc1 ?
HCMV UL50-53 inh: 1; GIV-Gai inh: 110

Results for CC(Oc1ccc(/C=C2\C(=O)NC(=O)N(c3ccc4c(c3)OCO4)C2=O)cc1)C(=O)O (stereo not drawn) ?
HCMV UL50-53 inh: -1; GIV-Gai inh: 104

How did O=C1CCCN1CCCN(CC(=O)N1CCNCC1)S(=O)(=O)c1ccccc1 do in these assays?
HCMV UL50-53 inh: -7; GIV-Gai inh: 103

High-throughput results deposited in PubChem BioAssay by ICCB-Longwood Screening Facility, Harvard Medical School.
